Values belong to the substance of their own block, whether it stands above or below them.
Assays:
[1] = target: double-headed NM-2B–HMM construct (heavy chain amino acids 1–1344 with MYL6 and MYL12b light chains) (human) (UniProt P35580)
[2] = target: Tpm1.8-enveloped filamentous β-actin (human | rat) (UniProt P60709)
[3] = target: Tpm1.8-enveloped filamentous β-actin (human | rat) (UniProt P60709); assay: stopped-flow light scattering; 4 μM NM-2B0 mixed with 0.5–4 μM bare actin or actin-Tpm complex, light scattering at 405 nm; 20 °C; 20 mM MOPS pH 7.0, 100 mM KCl, 5 mM MgCl2; no nucleotide; k+A from the slope, k−A from the y intercept, KA = k−A/k+A
[4] = target: Tpm1.12-enveloped filamentous β-actin (human | rat) (UniProt P60709); assay: as above
[5] = target: filamentous β-actin (human) (UniProt P60709); assay: as above
[6] = target: Tpm3.1-enveloped filamentous β-actin (human) (UniProt P60709); assay: as above

Kapp, actin concentration required for half-maximal activation of the steady-state ATPase of NM-2B–HMM (0–50 μM actin, 3-fold molar excess of Tpm, 25 °C) [1]: 12.2 µM
n, landing assay (fit of landing rate against NM-2B–HMM surface density) [1]: 1.5
Substance: Tpm1.12-enveloped filamentous β-actin (from UniProt P60709 1-375; P04692-5 1-245) (complex)

Kapp, actin concentration required for half-maximal activation of the steady-state ATPase of NM-2B–HMM (0–50 μM actin, 3-fold molar excess of Tpm, 25 °C) [1]: 30.1 µM
n, landing assay (fit of landing rate against NM-2B–HMM surface density) [1]: 1
Substance: Tpm3.1-enveloped filamentous β-actin (from UniProt P60709 1-375; P06753-2 1-248) (complex)

average run length of Qdot-labelled NM-2B–HMM in the single-molecule TIRF motility assay [2]: 650 nm
Substance: double-headed NM-2B–HMM construct (heavy chain amino acids 1–1344 with MYL6 and MYL12b light chains) (from UniProt P35580 1-1344; P60660 1-151; O14950 1-172) (complex)

Kapp, actin concentration required for half-maximal activation of the steady-state ATPase of NM-2B–HMM (0–50 μM actin, 25 °C) [1]: 47.5 µM
n, landing assay (fit of landing rate against NM-2B–HMM surface density) [1]: 5
Substance: filamentous β-actin (from UniProt P60709 1-375) (natural protein)

Kd [3]: 60 nM
koff [3]: 0.03 s⁻¹
kon [3]: 510000 M⁻¹ s⁻¹
koff [4]: 0.02 s⁻¹
kon [4]: 250000 M⁻¹ s⁻¹
Kd [5]: 60 nM
koff [5]: 0.02 s⁻¹
kon [5]: 320000 M⁻¹ s⁻¹
koff [6]: 0.015 s⁻¹
kon [6]: 490000 M⁻¹ s⁻¹
Substance: single-headed construct NM-2B0 (motor domain of human NM-2B0, residues 1–782, two Dictyostelium discoideum α-actinin repeats, C-terminal octahistidine tag) (from UniProt P35580 1-782) (domain or fragment)
